The experiment has as its target Phosphatidylinositol 4,5-bisphosphate 3-kinase catalytic subunit beta isoform (Homo sapiens, UniProt P42338). Format: cell-based, Sf9.

Sequences of proteins named here, by UniProt entry; tags and fusion partners are left off. A change or cut given only in a name is not applied to a line headed by its entry.
UniProt P42338: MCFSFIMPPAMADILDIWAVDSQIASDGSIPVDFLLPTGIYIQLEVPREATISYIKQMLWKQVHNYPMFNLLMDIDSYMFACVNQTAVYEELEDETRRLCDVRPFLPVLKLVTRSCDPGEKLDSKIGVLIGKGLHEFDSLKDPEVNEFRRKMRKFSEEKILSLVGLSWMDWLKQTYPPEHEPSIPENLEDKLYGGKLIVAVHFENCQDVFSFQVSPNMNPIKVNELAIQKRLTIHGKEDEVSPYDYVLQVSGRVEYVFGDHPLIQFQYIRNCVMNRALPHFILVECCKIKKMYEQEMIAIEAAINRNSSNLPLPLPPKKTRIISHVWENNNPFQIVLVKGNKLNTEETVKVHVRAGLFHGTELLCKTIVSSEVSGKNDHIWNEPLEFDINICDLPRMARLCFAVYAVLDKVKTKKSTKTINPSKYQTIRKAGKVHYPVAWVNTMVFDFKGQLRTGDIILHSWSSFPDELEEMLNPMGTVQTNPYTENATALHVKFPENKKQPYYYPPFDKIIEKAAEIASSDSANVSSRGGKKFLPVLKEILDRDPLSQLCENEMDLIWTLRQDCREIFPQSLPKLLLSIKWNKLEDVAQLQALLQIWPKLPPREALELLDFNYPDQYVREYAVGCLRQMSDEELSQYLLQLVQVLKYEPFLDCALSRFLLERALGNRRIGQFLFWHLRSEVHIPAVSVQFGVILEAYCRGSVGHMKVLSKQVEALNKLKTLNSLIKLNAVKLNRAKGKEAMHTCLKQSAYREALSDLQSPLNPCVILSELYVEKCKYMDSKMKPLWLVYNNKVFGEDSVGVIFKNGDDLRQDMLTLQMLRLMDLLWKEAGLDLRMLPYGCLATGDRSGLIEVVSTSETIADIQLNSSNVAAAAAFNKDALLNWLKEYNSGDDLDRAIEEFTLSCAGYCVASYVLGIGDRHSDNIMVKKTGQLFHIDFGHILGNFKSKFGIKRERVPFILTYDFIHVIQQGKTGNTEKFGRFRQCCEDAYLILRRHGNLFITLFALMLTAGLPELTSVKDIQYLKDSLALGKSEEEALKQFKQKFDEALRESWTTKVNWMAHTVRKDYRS

We go through one compound from ChEMBL document CHEMBL3585342, “Exploring the isoform selectivity of TGX-221 related pyrido[1,2-a]pyrimidinone-based Class IA PI 3-kinase inhibitors: synthesis, biological evaluation and molecular modelling” (Bioorg Med Chem, 2015).

Regarding `Cc1cc(C(C)Nc2ccccc2)c2nc(N3CCOCC3)cc(=O)n2c1` (racemic), it took 4 nM to reach half-maximal inhibition (IC50).

One may read the IC50 as the point on the concentration scale where inhibition reaches its midpoint. Higher therefore signals weaker potency.
